Results on one compound are retold here after US20250206724A1, “SUBSTITUTED 3-AMINO INDAZOLE DERIVATIVES AS KINASE INHIBITORS” (NERVIANO MEDICAL SCIENCES S.R.L., priority 2022, published 2025).

Sequences of proteins named here, by UniProt entry; tags and fusion partners are left off. Residues count along the entry.
UniProt Q9UQ88, 346-783 limits assumed: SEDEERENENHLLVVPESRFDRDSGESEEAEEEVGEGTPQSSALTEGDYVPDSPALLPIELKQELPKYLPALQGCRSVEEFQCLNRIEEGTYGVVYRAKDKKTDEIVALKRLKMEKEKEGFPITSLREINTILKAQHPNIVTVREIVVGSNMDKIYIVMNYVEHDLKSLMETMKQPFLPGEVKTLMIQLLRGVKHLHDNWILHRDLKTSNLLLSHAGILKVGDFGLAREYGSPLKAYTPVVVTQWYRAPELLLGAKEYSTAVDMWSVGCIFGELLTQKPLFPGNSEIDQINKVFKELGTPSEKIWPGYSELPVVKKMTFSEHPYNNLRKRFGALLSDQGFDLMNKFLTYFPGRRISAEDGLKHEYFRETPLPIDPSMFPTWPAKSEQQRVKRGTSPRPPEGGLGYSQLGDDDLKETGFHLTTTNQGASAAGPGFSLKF

The test deals with CDK11A (Homo sapiens, UniProt Q9UQ88). Conditions: displacement of SNS-032-Atto590 probe (0.002 μM) from CDK11A-p58 (0.032 uM), fluorescence polarization. (In general: In fluorescence polarisation assays a small probe gives low polarisation when free and higher when bound to something large.)
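Also: compound preincubated 30 min with CDK11A-p58, then probe added and polarization (mP) read 15 min later, 0% displacement is probe plus enzyme, 100% is probe alone.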

Turning to `N#Cc1ccc(Cl)c(-c2ccc3[nH]nc(NC(=O)C4CC(NCCF)C4)c3c2)c1` (stereo not shown), the DC50 is 61 nM.
